Data as given in publication PMC4538835 (Nucleic Acids Research, 2015).

T1: MED25 ACID/PTOV domain (residues 391 to 548) (human, UniProt Q71SY5 391-548)
T1 sequence (looked up): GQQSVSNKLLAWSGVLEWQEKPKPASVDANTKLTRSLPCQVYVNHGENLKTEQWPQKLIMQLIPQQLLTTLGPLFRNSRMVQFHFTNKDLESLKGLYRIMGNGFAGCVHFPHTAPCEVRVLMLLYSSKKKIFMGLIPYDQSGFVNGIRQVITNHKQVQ


Biological target: T1, MED25 ACID/PTOV domain (residues 391 to …)
Experiment: fluorescence polarisation

Row | Binder | Kd [µM]
1 | APPTDVSLGDELHLDGEDVAMAHADALDDFDLDMLGDGDS (peptide, UniProt P06492 413-452, looked up, TAMRA on the N-terminal free NH2 group) [TAMRA-labelled VP16 H1 peptide (amino acids 413–452)] | 0.15
2 | PGPGFTPHDSAPYGALDMADFEFEQMFTDALGIDEYGG (peptide, UniProt P06492 453-490, looked up, TAMRA on the N-terminal free NH2 group) [TAMRA-labelled VP16 H2 peptide (amino acids 453–490)] | 2
